Assay [1] deals with EGFR signaling proteins in xenograft tumors. Put plainly: Immunoblot / CO-IP of xenograft tumor tissue. It counts as in vivo. The settings on record: NCI-H1975 inoculated mice, long-term treatment. (In western blotting, separated proteins are transferred to a membrane and probed.)
For assay [2], the system named is NCI-H1975 cells. In words: Immunoblot of EGFR, HER2 and receptor tyrosine kinases, NCI-H1975 cells. The class given is cell-based, human. The note with it: short- or long-term treatment.

The structures appear in SMILES notation.

For `COc1cc2ncnc(Nc3ccc(F)c(Cl)c3)c2cc1OCCCN1CCOCC1` [gefitinib], the “expression / phosphorylation of STAT3, STAT5 (and ERK1/2) in xenograft tumor tissue” value in assay [1] was “markedly induced phosphorylation”. Further, in assay [2], the “EGFR phosphorylation and expression in H1975” value is given as “had no effect on EGFR phosphorylation”.
